Chains of the proteins cited; added tags and fusions are not shown.
UniProt P33535, whole entry: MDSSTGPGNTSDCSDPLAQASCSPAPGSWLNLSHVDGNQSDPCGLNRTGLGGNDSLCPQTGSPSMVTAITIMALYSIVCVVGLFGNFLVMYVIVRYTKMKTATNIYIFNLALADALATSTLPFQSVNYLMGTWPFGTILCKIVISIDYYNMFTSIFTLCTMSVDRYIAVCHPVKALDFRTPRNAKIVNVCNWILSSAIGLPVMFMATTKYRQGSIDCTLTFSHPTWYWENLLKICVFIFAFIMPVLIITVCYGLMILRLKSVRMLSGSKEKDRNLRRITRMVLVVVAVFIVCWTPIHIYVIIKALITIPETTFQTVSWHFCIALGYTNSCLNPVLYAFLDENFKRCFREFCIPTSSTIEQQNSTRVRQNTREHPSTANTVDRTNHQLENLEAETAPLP

According to US6150335A, “Tic-containing opioid dipeptide derivatives useful as analgesics” (Astra AB, priority 1996, dated 2000):

How the values were obtained:
guinea pig ileum (GPI) = experiment: Guinea pig ileum (GPI) bioassay: inhibition of electrically evoked contractions; format: cell-based; conditions: for IC50: read-out: GPI IC50, normalized with [Leu5]enkephalin standard, effect primarily μ-mediated, tested form: TFA
Procedure: (§1) Bioassays based on inhibition of electrically evoked contractions of the mouse vas deferens (MVD) and of the guinea pig ileum (GPI) were performed. In the GPI assay the opioid effect is primarily mediated by μ opioid receptors, whereas in the MVD assay the inhibition of the contractions is mostly due to interaction with δ opioid receptors.
(§2) The GPI and MVD bioassays were carried out as reported in P. W. Schiller et al., Biochem. Biophys. Res. Commun. 85, 1332-1338 (1978) and J. DiMaio et al., J. Med. Chem. 25, 1432-1438 (1982). A log-dose response curve was determined with [Leu^5 ]enkephalin as standard for each ileum and vas preparation, and IC50 values of the compounds being tested were normalized according to A. A. Waterfield et al., Eur. J. Pharmacol. 58, 11-18 (1979).

mouse vas deferens (MVD) = experiment: Mouse vas deferens (MVD) bioassay: inhibition of electrically evoked contractions; format: cell-based; conditions: tested form: TFA; for GPI/MVD IC50 ratio: ratio of GPI IC50 to MVD IC50; for IC50: read-out: MVD IC50
Procedure: as §1, §2

μ opioid receptor = μ opioid receptor (Rattus norvegicus, UniProt P33535); experiment: μ opioid receptor binding assay, displacement of [3H]DAMGO from rat brain membranes; conditions: read-out: Ki^μ, [3H]DAMGO 0.7 nM, Cheng-Prusoff, tested form: TFA
Procedure: (§3) μ and δ opioid receptor binding constants (Ki^μ,Ki^δ) of the compounds were determrined by displacement of relatively selective μ and δ radioligands from binding sites in rat brain membrane preparations calculated from the measured IC50 values on the basis of the equation by Cheng and Prusoff, (Y. C. Cheng and W. H. Prusoff Biochem. Pharmnacol. 22, 3099-3102 (1973)).
(§4) The μ-, δ- and κ-opioid receptor affinities of all new analogs were determined in binding assays based on displacement of μ-, δ- and κ-selective radioligands from rat brain membrane binding sites. In the case of κ-ligands guinea pig brain homogenates were used, since the relative proportion of κ-binding sites is higher in guinea pig brain than in rat brain. The experimental procedure being used in our laboratory represents a modified version of the binding assay described by Pasternak et al. (Mol. Pharnacol. 11, 340-351 (1975)). Male Sprague-Dawley rats (300-350 g) from the Canadian Breeding Laboratories were decapitated and after removal of the cerebellum the brains were homogenized in 30 volumes of ice-cold standard buffer (50 mnM Tris HCl , pH 7.7). After centrifugation at 30,000×g for 30 min at 4° C. the membranes were reconstituted in the original volume of standard buffer and incubated for 30 min at 37° C. (to release bound endogenous ligands). Subsequent centrifugation and resuspension of the pellet in the initial volume of fresh standard buffer yielded the final membrane suspension. Aliquots (2 ml) of the membrane preparations were incubated for 1-2 h at 25° C. with 1 ml standard buffer containing the peptide to be tested and one of the following radioligands at the final concentration indicated: [^3 H]DAMGO, μ-selective, 0.7 nM; [^3 H]DSLET, μ-selective, 1.0 nM; and [^3 H]U69,563, κ-selective, 0.5 nM. The incubation was terminated by filtration through Whatman GF/B filters under vacuum at 4° C. Following two washings with 5 ml portions of ice-cold standard buffer the filters were transferred to scintillation vials and treated with 1 ml Protosol (New England Nuclear) for 30 min prior to addition of 0.5 ml acetic acid and 10 ml Aquasol (New England Nuclear). After shaking for 30 min the vials were counted at an efficiency of 40-45%. All experiments were performed in duplicate and repeated at least three times. Specific binding of each of the three radioligands was defined by performing incubations in the presence of cold DAMGO, DSLET and U69,563, respectively, at a concentration of 1 micromolar. Values of half-maximal inhibition (IC50) of specific binding were obtained graphically from semilogarithmic plots. From the measured IC50-values, binding inhibition constants (Ki) were calculated based on Cheng and Prusoff's equation (Biochem. Pharmacol. 22, 3099-3102 (1973)). Ratios of the Ki -values determined in the μ-, δ- and κ-representative binding assays are a measure of the receptor selectivity of the compound under investigation (e.g. Ki^μ /Ki^μ indicates the selectivity for δ-receptors versus μ-receptors).

δ opioid receptor = δ opioid receptor (Rattus norvegicus, UniProt P33533); experiment: δ opioid receptor binding assay, displacement of [3H]DSLET from rat brain membranes; conditions: tested form: TFA; for Ki: read-out: Ki^δ, rat brain membranes, [3H]DSLET 1.0 nM, Cheng-Prusoff; for Ki^μ/Ki^δ: δ versus μ receptor selectivity
Procedure: as §3
as §4, with “[…];” for “[^3 H]DSLET, μ-selective, 1.0 nM;”

[1] = inhibition of electrically evoked contractions, normalized with [Leu5]enkephalin standard, effect mostly δ-mediated

Compound | IC50 (guinea pig ileum (GPI)) | GPI/MVD IC50 ratio (mouse vas deferens (MVD)) | IC50 (mouse vas deferens (MVD); [1]) | Ki (μ opioid receptor) | Ki (δ opioid receptor) | Ki^μ/Ki^δ (δ opioid receptor) | GPI IC50 (guinea pig ileum (GPI); normalized with [Leu5]enkephalin standard, effect primarily μ-mediated, tested form: TFA) | δ opioid agonist character (full / partial) (mouse vas deferens (MVD); conclusion from MVD and GPI assays) | MVD IC50 (mouse vas deferens (MVD); [1])
Cc1cc(O)cc(C)c1C[C@@H](N)C(=O)N1Cc2ccccc2C[C@H]1C(=O)NCC(c1ccccc1)c1ccccc1 | 91.1 nM | 30.3 | 3.01 nM | 4.08 nM | 1.75 nM | 2.33 |  |  | 
Cc1cc(O)cc(C)c1C[C@@H](N)C(=O)N1Cc2ccccc2C[C@H]1C(=O)NCCc1ccccc1 | 290 nM | 27.9 | 10.4 nM | 8.2 nM | 4.51 nM | 1.82 |  |  | 
CC(CNC(=O)[C@@H]1Cc2ccccc2CN1C(=O)[C@@H](N)Cc1ccc(O)cc1)(c1ccccc1)c1ccccc1 | 2830 nM | 30.3 | 93.4 nM | 22.9 nM | 20 nM | 1.15 |  |  | 
Cc1cc(O)cc(C)c1C[C@H](N)C(=O)N1Cc2ccccc2C[C@H]1C(=O)NCC(c1ccccc1)c1ccccc1 | 290 nM | 399 | 0.726 nM | 1.62 nM | 0.693 nM | 2.34 |  |  | 
C[C@H](CNC(=O)[C@@H]1Cc2ccccc2CN1C(=O)[C@@H](N)Cc1ccc(O)cc1)c1ccccc1 | 3790 nM | 177 | 21.4 nM | 82.3 nM | 6.31 nM | 13.0 |  |  | 
N[C@@H](Cc1ccc(O)cc1)C(=O)N1Cc2ccccc2C[C@H]1C(=O)NCCc1ccccc1Cl |  |  | 8.77 nM | 96.9 nM | 1.43 nM | 67.8 | partial agonist |  | 
N[C@@H](Cc1ccc(O)cc1)C(=O)N1Cc2ccccc2C[C@H]1C(=O)NCCc1ccccc1F | 5450 nM | 72.2 | 75.5 nM | 255 nM | 7.71 nM | 33.1 |  |  | 
C[C@@H](CNC(=O)[C@@H]1Cc2ccccc2CN1C(=O)[C@@H](N)Cc1ccc(O)cc1)c1ccccc1 | 3430 nM | 132 | 26 nM | 51.3 nM | 3.67 nM | 14.0 |  |  | 
Cc1cc(O)cc(C)c1C[C@H](N)C(=O)N1Cc2ccccc2C[C@H]1C(=O)NCCc1ccccc1 | 48 nM | 20.9 | 2.3 nM | 1.59 nM | 0.0577 nM | 27.6 |  | partial δ agonists | partial agonist
CN[C@@H](Cc1ccc(O)cc1)C(=O)N1Cc2ccccc2C[C@H]1C(=O)NCC(c1ccccc1)c1ccccc1 | 156 nM | 598 | 0.261 nM | 12.7 nM | 0.581 nM | 21.9 |  |  | 
